ARNT TACC3 PPI: disruptors of ARNT/TACC3 protein interaction, primary screen, biochemical, AlphaScreen, single concentration; Transforming acidic coiled-coil-containing protein 3 (Homo sapiens), Q9Y6A5; AlphaScreen His-ARNT PAS-B/GST-TACC3 binding, luminescence; TACC3 fragment carries E629A point mutation; inhibition, % at 9.99 µM; hit rate 0.66% among 390,000; AID 623870, 2012;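 active = mean inhibition of replicates at least 50% and at least half of replicates each reaching 50%; inconclusive = half or more replicates reach 50% but mean below 50%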;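 also: 0% = complete ARNT plus TACC3 wells and 100% = ARNT alone without TACC3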
PglD DTNB: C. jejuni PglD acetyltransferase inhibitors, primary screen, biochemical, DTNB colorimetric, single point. UDP-N-acetylbacillosamine N-acetyltransferase PglD (Campylobacter jejuni). purified PglD enzyme, DTNB colorimetric CoA detection. inhibition, % at 12.5 µM. hit rate 0.098% among 360,000; in the data active = inhibition above about 16%, passing the limit was not always enough; inconclusive = no clear call, values can overlap the other calls
Vif inh: HIV Vif self-association inhibitors, primary screen, imaging, HEK293T, single point; HEK293T cells, Vif self-association by quenched fluorescence, 24 h; inhibition, % at 7.49 µM; hit rate 0.35% among 340,000; in the data active = inhibition above about 50%, passing the limit was not always enough; inconclusive = no clear call, values can overlap the other calls; inactive = below about 31%
CAL PDZ FP-1: untagged CAL PDZ binding inhibitors, primary screen, biochemical, fluorescence polarization, HTS | Golgi-associated PDZ and coiled-coil motif-containing protein (Homo sapiens), Q9HD26 | purified CAL PDZ, TMR-peptide fluorescence polarization, 1 h | inhibition, % at 24.9 µM | hit rate 0.92% among 300,000;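 active = mean inhibition of at least 30% with at least half of replicates also reaching 30%; inconclusive = no clear call, values can overlap the other calls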;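 also: 0% = DMSO neutral control and 100% = excess unlabeled competitor peptide PRC23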
CAL PDZ FP-2: CAL PDZ peptide-binding inhibitors, primary screen, biochemical, fluorescence polarization, Cer-tagged CAL PDZ, HTS; Golgi-associated PDZ and coiled-coil motif-containing protein (Homo sapiens), Q9HD26; purified CAL PDZ, TMR-peptide fluorescence polarization, 1 h; inhibition, % at 20 µM; hit rate 0.02% among 330,000; AID 504414, 2011;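 active = highest replicate inhibition of at least 40%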;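 also: plate controls were DMSO neutral control wells for no effect and unlabeled competitor peptide control wells for full effect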
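System: tagged CAL PDZ domain. Schedule: 1 h room-temperature incubation prior to read. Signal: fluorescence polarization (mP). Measure: percent inhibition from loss of millipolarization.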
UUG fidelity: alters start codon recognition fidelity in yeast; AID 602363; activity score, % at 18.7 µM; 350,000 tested, 0.13% active; S. cerevisiae UUG-firefly luciferase reporter, luminescence/redox ratio;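 active means replicate mean at a twofold rise or more, about +100% in these data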;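 further: firefly luciferase made from a UUG start codon reports start codon fidelity; reporter light over untreated wells divided by growth signal over untreated wells; some hits fall short of that in this replicate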
* = called active by the depositor; ? = inconclusive; . = not tested or not shown; + = active, no number. Sampled rows, rich in hits. Any-hit rate of the full collection: about 1.6%.

SMILES | ARNT TACC3 PPI | PglD DTNB | Vif inh | CAL PDZ FP-1 | CAL PDZ FP-2 | UUG fidelity
O=C(c1ccco1)N1CCN(Cc2cc(=O)oc3cc(O)ccc23)CC1 | -4 | 0 | 7 | 48* | -1 | -6
O=C(C[C@H]1CC[C@H]2[C@@H](COC[C@@H](O)CN2C(=O)Nc2ccc(F)cc2)O1)NC1Cc2ccccc2C1 | 3 | -1 | . | . | . | 16
COc1ccc(OC)c(NC(=O)CC2SC(=N)N(c3ccccc3)C2=O)c1 (stereo not drawn) | -1 | 1 | 1 | + | 0 | -4
N=C1SC(CC(=O)Nc2ccc([N+](=O)[O-])cc2)C(=O)N1c1ccccc1 (stereo not drawn) | -2 | 7 | -1 | . | -2 | -4
CCC(CC)NC(=O)COC(=O)c1ccc(OCC(=O)Nc2ccccc2OC)c(OC)c1 | -19 | 3 | 10 | 44* | 1 | -14
CCCNC(=O)COC(=O)c1ccc(OCC(=O)Nc2ccccc2OC)c(OC)c1 | -5 | -1 | 33 | 9 | 1 | -18
O=C(Nc1nc2ccccc2[nH]1)c1cc2ccccc2o1 | 14 | 0 | 1 | 46* | 25 | 13
Cc1cc(C)cc(C(=O)Nc2nc3ccccc3[nH]2)c1 | 5 | -2 | -4 | -6 | -2 | -23
CN(C)CC/C=C1/c2ccccc2CS(=O)(=O)c2ccccc21 | -11 | -1 | 85* | -4 | -1 | 14
CN(C)CC/C=C1\c2ccccc2COc2ccccc21 | 1 | -1 | 13 | -3 | -1 | -17
COc1cccc(C(=O)N2C[C@H]3[C@@H](c4ccccc42)[C@H](CO)N3C(=O)c2ccc(F)cc2)c1 | 4 | -1 | . | . | . | 15
Cc1cccc(NC(=O)c2ccccc2SCc2ccc(F)cc2)n1 | . | -3 | -1 | 60* | 0 | -14

2 entries from above, as a markdown table.
| structure | ARNT TACC3 PPI | PglD DTNB | Vif inh | CAL PDZ FP-1 | CAL PDZ FP-2 | UUG fidelity |
| --- | --- | --- | --- | --- | --- | --- |
| N=C1SC(CC(=O)Nc2ccc([N+](=O)[O-])cc2)C(=O)N1c1ccccc1 (stereo not drawn) | -2 | 7 | -1 | . | -2 | -4 |
| CCC(CC)NC(=O)COC(=O)c1ccc(OCC(=O)Nc2ccccc2OC)c(OC)c1 | -19 | 3 | 10 | 44* | 1 | -14 |

(cont.)
SMILES | ARNT TACC3 PPI | PglD DTNB | Vif inh | CAL PDZ FP-1 | CAL PDZ FP-2 | UUG fidelity
O=C(Nc1ccc(Cl)cn1)c1ccccc1SCc1ccccc1 | 0 | -2 | 0 | -4 | 0 | -12
COc1cc2c(cc1OC)-c1cc(Nc3ccccc3)nc(=O)n1CC2 | 26 | -8 | -3 | . | -3 | -8
COc1cc2c(cc1OC)-c1cc(Nc3ccc(C(=O)O)cc3)nc(=O)n1CC2 | 46* | -11 | -1 | -4 | -1 | -12
Cc1c(Cl)c([N+](=O)[O-])nn1CC(=O)Nc1c(C)n(C)n(-c2ccccc2)c1=O | -3 | 6 | 21 | 53* | -1 | 6
Cc1c(NC(=O)C(C)OC(=O)c2cc(Cl)nc(Cl)c2)c(=O)n(-c2ccccc2)n1C (stereo not drawn) | -4 | 0 | -6 | . | 0 | -6
Cc1c(NC(=O)CN2C(=O)c3ccc([N+](=O)[O-])cc3C2=O)c(=O)n(-c2ccccc2)n1C | 1 | . | -2 | 55* | -1 | .
Cc1c(NC(=O)C(C)OC(=O)c2sc3ccccc3c2Cl)c(=O)n(-c2ccccc2)n1C (stereo not drawn) | -2 | . | 108* | -1 | -3 | .
Cc1c(NC(=O)CSc2ccccc2C(=O)Nc2cccnc2)c(=O)n(-c2ccccc2)n1C | -3 | -3 | . | 83* | -2 | -6
Cc1nn(Cc2ccccc2)c(C)c1NC(=O)Cn1nc([N+](=O)[O-])c(Cl)c1C | -6 | -1 | -3 | -4 | -1 | -17
Cc1c(NC(=O)CN2C(=O)c3ccccc3C2=O)c(=O)n(-c2ccccc2)n1C | -3 | 6 | . | -3 | 0 | -15
Cc1c(NC(=O)CSc2ccccc2F)c(=O)n(-c2ccccc2)n1C | -5 | 1 | -6 | -2 | -1 | -2
O=C(N[C@@H]1CC[C@H](CCNC(=O)C2CCC2)O[C@H]1CO)c1ccccn1 | . | 16 | . | . | . | 21

The last 4 compounds of the part before come first, to join the parts.
SMILES | ARNT TACC3 PPI | PglD DTNB | Vif inh | CAL PDZ FP-1 | CAL PDZ FP-2 | UUG fidelity
Cc1nn(Cc2ccccc2)c(C)c1NC(=O)Cn1nc([N+](=O)[O-])c(Cl)c1C | -6 | -1 | -3 | -4 | -1 | -17
Cc1c(NC(=O)CN2C(=O)c3ccccc3C2=O)c(=O)n(-c2ccccc2)n1C | -3 | 6 | . | -3 | 0 | -15
Cc1c(NC(=O)CSc2ccccc2F)c(=O)n(-c2ccccc2)n1C | -5 | 1 | -6 | -2 | -1 | -2
O=C(N[C@@H]1CC[C@H](CCNC(=O)C2CCC2)O[C@H]1CO)c1ccccn1 | . | 16 | . | . | . | 21
CC(=O)N(C)C[C@@H]1Oc2ncc(-c3ccc(C(=O)N(C)C)cc3)cc2C(=O)N([C@@H](C)CO)C[C@H]1C | -9 | 0 | . | . | . | 12
O=C([C@H]1[C@H](CO)[C@H]2Cn3c(cccc3=O)[C@H]2N1C(=O)CC1CC1)N1CCCCC1 | -13 | -2 | . | . | . | .
C[C@H](CO)N1C[C@H](C)[C@@H](CN(C)Cc2ccccc2)Oc2ncc(-c3ccccc3)cc2C1=O | 1 | 6 | . | . | . | -1
Cc1c(NC(=O)COc2ccccc2Cl)c(=O)n(-c2ccccc2)n1C | 2 | -5 | ? | 41* | -1 | -21
Cc1c(NC(=O)COC(=O)c2ccccc2Cl)c(=O)n(-c2ccccc2)n1C | 22 | . | -9 | 3 | 0 | .
Cc1ccn2c(Nc3ccc4c(c3)OCO4)c(-c3ccccn3)nc2c1 | 66* | 3 | -7 | 0 | -1 | -21
CCNC(=S)N(CCc1cccc(C)c1)Cc1cc2cc(OC)c(OC)cc2[nH]c1=O | 8 | -3 | -1 | -4 | -1 | -8
CC(C)CNC(=S)N(CCN(C)C)Cc1cc2cc3c(cc2[nH]c1=O)OCO3 | -5 | -3 | 2 | . | 0 | -21
COCCCNC(=S)N(CCCO)Cc1cc2cc3c(cc2[nH]c1=O)OCCO3 | -5 | -8 | 19 | 42* | 0 | -4
CCNC(=S)N(CCc1ccc(OC)c(OC)c1)Cc1cc2cc(OC)ccc2[nH]c1=O | -2 | -9 | 9 | 57* | 0 | -17
CCNC(=S)N(CCN(C)C)Cc1cc2cc3c(cc2[nH]c1=O)OCO3 | -1 | 1 | -6 | 84* | . | -15
C/C=C/c1ccc2c(c1)O[C@H](CN(C)Cc1ccc(F)cc1)[C@H](C)CN([C@H](C)CO)S2(=O)=O | 5 | -1 | . | . | . | -3
CCCNC(=O)C[C@@H]1CC[C@@H]2[C@@H](COc3ccc(NS(=O)(=O)CC)cc3C(=O)N2C)O1 | -9 | 2 | . | . | . | -14
Cc1onc(-c2ccccc2)c1C(=O)NNC(=O)c1ccccc1Br | 16 | 4 | 21 | 2 | 0 | -8
Cc1onc(-c2ccccc2)c1C(=O)NC(=S)NNC(=O)c1ccc(O)cc1 | 21 | . | 4 | 0 | 0 | .
Cc1onc(-c2ccccc2)c1C(=O)NC(=S)NNC(=O)c1ccccc1O | 58* | . | . | -1 | 1 | .
Cc1onc(-c2ccccc2)c1C(=O)NC(=S)NNC(=O)c1ccc(O)cc1O | 95* | . | -25 | -5 | -1 | .
Cc1ccc(NC(=O)c2c(-c3ccccc3)noc2C)nc1 | -11 | . | -7 | + | -1 | .
C[C@@H]1CN([C@@H](C)CO)C(=O)Cc2cc(NS(=O)(=O)c3cccs3)ccc2O[C@H]1CN(C)C(=O)Nc1ccc2c(c1)OCO2 | 0 | 4 | . | . | . | 2

Bioassay records as filed in PubChem BioAssay.
